# Data: publication PMC9865193, “Improvement of the Chemical Reactivity of Michael Acceptor of Ethacrynic Acid Correlates with Antiproliferative Activities” (Molecules, 2023)
# Experiments:
# Type in all cases: cell-based, human
# [1] = test system: U87-MG cells; test: MTS cell growth inhibition assay, U87-MG; details: ratio of IC50 MRC5/IC50 U87-MG
# Procedure: (§1) Moreover, in order to evaluate the safety index, their effect on the proliferation of human lung fibroblasts (MCR5) as a normal cell line was also studied.
# (§2) All cancer cell lines (HCT116, A549, MCF7, PC3, U87-MG, SKOV3, and MRC5) were obtained from the European Collection of Cell Culture (ECACC, Salisbury, UK) or from the American Type Culture Collection (Rockville, MD, USA) and were cultured according to the supplier’s instructions. Human HCT-116 colorectal carcinoma, MCF7 breast adenocarcinoma, PC3 prostate adenocarcinoma, A549 lung carcinoma, and SK-OV-3 ovary carcinoma were grown in Gibco McCoy’s 5A supplemented with 10% fetal calf serum (FCS) and 1% glutamine. HL60 myelogenous leukemia cells were grown in RPMI 1640 supplemented with 10% fetal calf serum (FCS) and 1% glutamine. U87-MG glioblastoma and human MRC-5 cells were grown in Gibco medium DMEM supplemented with 10% fetal calf serum (FCS) and 1% glutamine. Cells were maintained at 37 °C in a humidified atmosphere containing 5% CO2. Cell growth inhibition was determined by an MTS assay according to the manufacturer’s instructions (Promega, Madison, WI, USA). Briefly, the cells were seeded in 96-well plates (2.5 × 10^3 cells/well) containing 100 μL of growth medium. […] One Solution Reagent was added for 2 h before recording absorbance at 490nm with a spectrophotometric plate reader. […]
# [2] = test system: HCT116 cells; test: MTS cell growth inhibition assay, HCT116; details: ratio of IC50 MRC5/IC50 HCT116
# Procedure: as §1, §2
# [3] = test system: MCF7 cells; test: MTS cell growth inhibition assay, MCF7; details: ratio of IC50 MRC5/IC50 MCF7
# Procedure: as §1, §2
# [4] = test system: A549 cells; test: MTS cell growth inhibition assay, A549; details: ratio of IC50 MRC5/IC50 A549
# Procedure: as §1, §2
compound,measurement,setting,value
"COc1cccc2c1C(=O)c1c(O)c3c(c(O)c1C2=O)C[C@@](O)(C(=O)CO)C[C@@H]3O[C@H]1C[C@H](N)[C@H](O)[C@H](C)O1 [Doxorubicin, doxorubicin, reference compound]",Selectivity index (SI) MRC5/U87-MG,[1],0.40
same,Selectivity index (SI) MRC5/HCT116,[2],0.44
same,Selectivity index (SI) MRC5/MCF7,[3],0.33
same,Selectivity index (SI) MRC5/A549,[4],0.70
